According to patent US6747057B2 (priority 2001, dated 2004):
This is a selection: effects in other tests are not listed, and their absence says nothing.

Tested on: GSK-3
Experiment: Inhibition of GSK-3 (32P incorporation into GS 1 peptide)
Format: biochemical
Conditions: read-out: IC50 GSK-3 inhibition; 37° C., 20 minutes, GS 1 peptide 15 μM, ATP 15 μM

For `O=C(c1ccccc1)C(Cl)Br` (stereo not shown), the IC50 was 5 µM.
